Data reported in ChEMBL document CHEMBL5321287, “Discovery, Synthesis, and Evaluation of Novel Dual Inhibitors of a Vascular Endothelial Growth Factor Receptor and Poly(ADP-Ribose) Polymerase for BRCA Wild-Type Breast Cancer Therapy” (J Med Chem, 2023).

Assays:
MCF7 [1] = assay: Antimigratory activity in human MCF7 cells assessed as downregulation of MMP-2 level at 4 uM incubated for 2 days in presence of 1:1 of compound:Pazopanib by immunoblot analysis; assay type: functional, cell-based; conditions: time 2.0 day
MDA-MB-231 [2] = assay: Induction of HR DNA repair in human MDA-MB-231 cells xenografted in BALB/c nude mouse assessed as decrease in RAD51 level at 50 mg/kg, po for 14 days in presence of 1:1 of compound:Pazopanib by Western blot analysis; assay type: functional, organism-based; conditions: time 14.0 day
MDA-MB-231 [3] = assay: Induction of DNA damage in human MDA-MB-231 cells xenografted in BALB/c nude mouse assessed as increase in gamma-H2AX level at 50 mg/kg, po for 14 days in presence of 1:1 of compound:Pazopanib by Western blot analysis; assay type: functional, organism-based; conditions: time 14.0 day
MDA-MB-231 [4] = assay: Induction of HR DNA repair in human MDA-MB-231 cells xenografted in BALB/c nude mouse assessed as decrease in FOXM1 level at 50 mg/kg, po for 14 days in presence of 1:1 of compound:Pazopanib by Western blot analysis; assay type: functional, organism-based; conditions: time 14.0 day
MDA-MB-231 [5] = assay: Antiproliferation activity against human MDA-MB-231 cells assessed as decrease in Ki67 expression at 4 uM incubated for 48 hrs in presence of 1:1 of compound:Pazopanib by immunofluorescence analysis; assay type: functional, cell-based
MCF7 [6] = assay: Antimigratory activity in human MCF7 cells assessed as upregulation of E-cadherin level at 4 uM in presence of 1:1 of compound:Pazopanib by DAPI staining based immunofluorescence analysis; assay type: functional, cell-based
MDA-MB-231 [7] = assay: Induction of apoptosis in human MDA-MB-231 cells assessed as decrease in Bcl-2 level at 4 uM incubated for 2 days in presence of 1:1 of compound:Pazopanib by immunoblot analysis; assay type: functional, cell-based; conditions: time 2.0 day
MDA-MB-231 [8] = assay: Antimetastatic activity against human MDA-MB-231 cells xenografted in lungs of BALB/c nude mouse assessed as decrease in lung metastatic nodules at 50 mg/kg administered once a day measured after 14 days in presence of 1:1 of compound:Pazopanib by H and E staining based analysis; assay type: functional, organism-based; conditions: time 14.0 day
MDA-MB-231 [9] = assay: Induction of apoptosis in human MDA-MB-231 cells assessed as increase in Bax level at 4 uM incubated for 2 days in presence of 1:1 of compound:Pazopanib by immunoblot analysis; assay type: functional, cell-based; conditions: time 2.0 day
MDA-MB-231 [10] = assay: Induction of HR DNA repair in human MDA-MB-231 cells xenografted in BALB/c nude mouse assessed as decrease in FOXM1 level at 50 mg/kg, po for 14 days in presence of 1:1 of compound:Pazopanib by H and E staining based IHC analysis; assay type: functional, organism-based; conditions: time 14.0 day
MDA-MB-231 [11] = assay: Antimigratory activity against human MDA-MB-231 cells at 4 uM incubated for 1 hr in presence of 1:1 of compound:Pazopanib by wound healing assay; assay type: functional, cell-based
MDA-MB-231 [12] = assay: Downregulation of PAR expression in human MDA-MB-231 cells xenografted in BALB/c nude mouse at 25 to 50 mg/kg, po for 14 days in presence of 1:1 of compound:Pazopanib by Western blot analysis; assay type: functional, organism-based; conditions: dose 25-50 mg/kg, time 14.0 day
MDA-MB-231 [13] = assay: Antiinvasive activity against human MDA-MB-231 cells at 4 uM incubated for 12 hrs in presence of 1:1 of compound:Pazopanib by transwell assay; assay type: functional, cell-based
MCF7 [14] = assay: Inhibition of colony formation in human MCF7 cells at 4 uM incubated for 10 days in presence of 1:1 of compound:Pazopanib by crystal violet staining based assay; assay type: functional, cell-based; conditions: time 10.0 day
MDA-MB-231 [15] = assay: Antimigratory activity in human MDA-MB-231 cells xenografted in lungs of BALB/c nude mouse assessed as decrease in MMP2 level in lungs at 50 mg/kg administered once a day measured after 14 days in presence of 1:1 of compound:Pazopanib by IHC analysis; assay type: functional, organism-based; conditions: time 14.0 day
MDA-MB-231 [16] = assay: Induction of hypoxia in human MDA-MB-231 cells assessed as upregulation of HIF-1alpha level at 4 uM incubated for 2 days in presence 1:1 of Pazopanib by Western blot analysis; assay type: functional, cell-based; conditions: time 2.0 day
MDA-MB-231 [17] = assay: Antimigratory activity in human MDA-MB-231 cells assessed as downregulation of MMP-2 level at 4 uM in presence of 1:1 of compound:Pazopanib by DAPI staining based immunofluorescence analysis; assay type: functional, cell-based
MCF7 [18] = assay: Antimigratory activity in human MCF7 cells assessed as upregulation of E-cadherin level at 4 uM incubated for 2 days in presence of 1:1 of compound:Pazopanib by immunoblot analysis; assay type: functional, cell-based; conditions: time 2.0 day
MDA-MB-231 [19] = assay: Antimigratory activity in human MDA-MB-231 cells assessed as upregulation of E-cadherin level at 4 uM in presence of 1:1 of compound:Pazopanib by DAPI staining based immunofluorescence analysis; assay type: functional, cell-based
MDA-MB-231 [20] = assay: Induction of DNA damage in human MDA-MB-231 cells assessed as increase in gamma-H2AX level at 4 uM incubated for 48 hrs in presence of 1:1 of compound:Pazopanib by DAPI staining based immunofluorescence analysis; assay type: functional, cell-based
MDA-MB-231 [21] = assay: Antimigratory activity in human MDA-MB-231 cells assessed as downregulation of MMP-2 level at 4 uM incubated for 2 days in presence of 1:1 of compound:Pazopanib by immunoblot analysis; assay type: functional, cell-based; conditions: time 2.0 day
MCF7 [22] = assay: Induction of HR DNA repair in human MCF7 cells assessed as decrease in RAD51 level at 4 uM incubated for 48 hrs in presence of 1:1 of compound:Pazopanib by DAPI staining based immunofluorescence analysis; assay type: functional, cell-based
MCF7 [23] = assay: Antiproliferation activity against human MCF7 cells assessed as decrease in Ki67 expression at 4 uM incubated for 48 hrs in presence of 1:1 of compound:Pazopanib by immunofluorescence analysis; assay type: functional, cell-based
MCF7 [24] = assay: Antiinvasive activity against human MCF7 cells at 4 uM incubated for 12 hrs in presence of 1:1 of compound:Pazopanib by transwell assay; assay type: functional, cell-based
MCF7 [25] = assay: Induction of hypoxia in human MCF7 cells assessed as upregulation of HIF-1alpha level at 4 uM incubated for 2 days in presence 1:1 of Pazopanib by Western blot analysis; assay type: functional, cell-based; conditions: time 2.0 day
MCF7 [26] = assay: Induction of DNA damage in human MCF7 cells assessed as increase in comet tail length at 4 uM in presence 1:1 of Pazopanib by alkaline comet assay; assay type: functional, cell-based
MDA-MB-231 [27] = assay: Downregulation of PAR expression in human MDA-MB-231 cells at 4 uM incubated for 2 days in presence 1:1 of Pazopanib by Western blot analysis; assay type: functional, cell-based; conditions: time 2.0 day
MDA-MB-231 [28] = assay: Antimigratory activity in human MDA-MB-231 cells assessed as upregulation of E-cadherin level at 4 uM incubated for 2 days in presence of 1:1 of compound:Pazopanib by immunoblot analysis; assay type: functional, cell-based; conditions: time 2.0 day
MDA-MB-231 [29] = assay: Induction of HR DNA repair in human MDA-MB-231 cells assessed as decrease in RAD51 level at 4 uM incubated for 48 hrs in presence of 1:1 of compound:Pazopanib by DAPI staining based immunofluorescence analysis; assay type: functional, cell-based
MDA-MB-231 [30] = assay: Antimetastatic activity against human MDA-MB-231 cells xenografted in lungs of BALB/c nude mouse assessed as decrease in lung metastatic nodules at 50 mg/kg administered once a day measured after 14 days in presence of 1:1 of compound:Pazopanib; assay type: functional, organism-based; conditions: time 14.0 day
MCF7 [31] = assay: Induction of apoptosis in human MCF7 cells assessed as decrease in Bcl-2 level at 4 uM incubated for 2 days in presence of 1:1 of compound:Pazopanib by immunoblot analysis; assay type: functional, cell-based; conditions: time 2.0 day

O=C(c1cc(Cc2n[nH]c(=O)c3ccccc23)ccc1F)N1CCN(C(=O)C2CC2)CC1 [OLAPARIB]
Activity (MCF7 [1]): Active | Activity (MDA-MB-231 [2]): Active | Activity (MDA-MB-231 [3]): Active | Activity (MDA-MB-231 [4]): Active | Activity (MDA-MB-231 [5]): Active | Activity (MCF7 [6]): Active | Activity (MDA-MB-231 [7]): Active | Activity (MDA-MB-231 [8]): Active | Activity (MDA-MB-231 [9]): Active | Activity (MDA-MB-231 [10]): Active | Activity (MDA-MB-231 [11]): Active | Activity (MDA-MB-231 [12]): Active | Activity (MDA-MB-231 [13]): Active | inhibition (MCF7 [14]): Active | Activity (MDA-MB-231 [15]): Active | Activity (MDA-MB-231 [16]): Active | Activity (MDA-MB-231 [17]): Active | Activity (MCF7 [18]): Active | Activity (MDA-MB-231 [19]): Active | Activity (MDA-MB-231 [20]): Active | Activity (MDA-MB-231 [21]): Active | Activity (MCF7 [22]): Active | Activity (MCF7 [23]): Active | Activity (MCF7 [24]): Active | Activity (MCF7 [25]): Active | Activity (MCF7 [26]): Active | Activity (MDA-MB-231 [27]): inactive | Activity (MDA-MB-231 [28]): Active | Activity (MDA-MB-231 [29]): Active | Activity (MDA-MB-231 [30]): Active | Activity (MCF7 [31]): Active

Activity calls are given as the source filed them. No cut-off for these calls is given here.
